These are literature values, as cited in patent publication US20080125663A1, “Pre-And Intra-Operative Imaging of Testicular Torsion” (University of Rochester Medical Center, priority 2006, published 2008).

Structures are written as SMILES.

What all share (details): IV administration; cited from earlier work
Data set [1] deals with rats.
Data set [2] concerns mice.
Data set [3] relates to rabbits.

For the compound `CC1(C)C(/C=C/C=C/C=C/C=C2\N(CCCCS(=O)(=O)O)c3ccc4ccccc4c3C2(C)C)=[N+](CCCCS(=O)(=O)[O-])c2ccc3ccccc3c21` [ICG, indocyanine green], the LD50 in data set [1] is 50 and 70 mg/kg; in data set [2] it was 60 and 80 mg/kg; in data set [3], 50 to 80 mg/kg.
